For one experiment, the target named is TBK1 (Homo sapiens (Human), UniProt Q9UHD2). Description: TR-FRET enzymatic assay, phosphorylation of biotinylated serine/threonine peptide substrate (TBK1). The settings on record: read-out: TBK1-IC50; full length recombinant TBK1, 2×Km ATP (40-80 μM), 1 μM peptide, 240 minutes at 25° C.; geometric mean of minimum four determinations. (In general: TR-FRET usually uses a lanthanide donor and a delayed reading to cut background.)

The chains behind the UniProt entries cited, without tags or fusion partners. Where a name states a change or a piece, a line headed by the entry shows the natural chain unless it says otherwise.
UniProt Q9UHD2: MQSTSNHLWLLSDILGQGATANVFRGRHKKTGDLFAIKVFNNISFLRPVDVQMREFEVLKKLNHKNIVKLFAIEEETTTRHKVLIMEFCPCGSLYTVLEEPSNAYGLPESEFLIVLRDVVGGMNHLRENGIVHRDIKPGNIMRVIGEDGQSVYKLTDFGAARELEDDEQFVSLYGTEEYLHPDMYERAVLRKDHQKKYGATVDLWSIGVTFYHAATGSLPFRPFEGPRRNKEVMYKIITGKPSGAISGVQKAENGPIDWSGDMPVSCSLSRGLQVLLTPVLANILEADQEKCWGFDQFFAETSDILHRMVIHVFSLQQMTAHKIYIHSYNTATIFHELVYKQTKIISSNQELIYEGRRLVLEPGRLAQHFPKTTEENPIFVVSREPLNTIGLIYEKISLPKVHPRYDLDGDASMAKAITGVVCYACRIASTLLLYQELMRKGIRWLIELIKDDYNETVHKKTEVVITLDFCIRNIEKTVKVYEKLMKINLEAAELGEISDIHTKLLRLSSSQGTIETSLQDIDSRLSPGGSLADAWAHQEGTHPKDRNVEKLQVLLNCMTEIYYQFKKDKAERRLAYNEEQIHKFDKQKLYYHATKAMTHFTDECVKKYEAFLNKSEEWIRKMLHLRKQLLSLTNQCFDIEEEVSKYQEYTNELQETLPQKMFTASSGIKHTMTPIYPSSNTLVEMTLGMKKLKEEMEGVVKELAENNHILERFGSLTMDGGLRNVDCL
UniProt Q14164: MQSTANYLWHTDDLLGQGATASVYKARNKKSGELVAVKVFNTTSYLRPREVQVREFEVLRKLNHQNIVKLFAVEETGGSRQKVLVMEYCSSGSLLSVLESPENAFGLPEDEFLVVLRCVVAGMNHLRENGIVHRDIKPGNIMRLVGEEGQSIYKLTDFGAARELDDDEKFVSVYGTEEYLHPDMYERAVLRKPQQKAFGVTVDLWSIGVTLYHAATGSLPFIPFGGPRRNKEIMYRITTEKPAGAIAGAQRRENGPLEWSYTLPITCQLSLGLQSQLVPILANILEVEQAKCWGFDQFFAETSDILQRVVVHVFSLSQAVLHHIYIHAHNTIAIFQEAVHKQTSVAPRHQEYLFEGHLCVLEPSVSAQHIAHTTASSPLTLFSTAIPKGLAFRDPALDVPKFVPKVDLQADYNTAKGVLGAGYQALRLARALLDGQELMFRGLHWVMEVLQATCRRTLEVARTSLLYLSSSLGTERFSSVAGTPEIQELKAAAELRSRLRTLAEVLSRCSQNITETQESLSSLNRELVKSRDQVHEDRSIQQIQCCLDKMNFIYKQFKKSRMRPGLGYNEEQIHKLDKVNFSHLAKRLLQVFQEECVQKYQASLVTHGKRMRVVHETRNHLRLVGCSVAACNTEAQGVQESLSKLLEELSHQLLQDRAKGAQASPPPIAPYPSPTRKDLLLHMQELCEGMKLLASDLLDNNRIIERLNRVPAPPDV

For a further experiment, the target named is IKKε (Homo sapiens (Human), UniProt Q14164). Description: TR-FRET enzymatic assay, phosphorylation of biotinylated serine/threonine peptide substrate (IKKε). As to conditions: full length recombinant IKKε at 0.3 nM, 2×Km ATP (40-80 μM), 1 μM peptide, 240 minutes at 25° C.; geometric mean of minimum four determinations. Type of experiment: biochemical. The source says: Biological Assay for TBK1 and IKKε:

We go through three substances from patent US10259811B2, “Tank-binding kinase inhibitor compounds” (Gilead Sciences, Inc., priority 2014, dated 2019).

pIC50: −log10 of the molar value.

What is called pIC50 is the IC50 on a negative log10 scale, so that one unit is a factor of ten. As for “5-(6-(1,4-dioxaspiro[4.5]dec-7-en-8-yl)-7H-pyrrolo[2,3-d]pyrimidin-4-yl)-2-((1-(2-hydroxyacetyl)piperidin-4-yl)oxy)benzonitrile [Example 175]”, the pIC50 on TBK1 was 8.84.
On to “5-(6-(6-aminopyrazin-2-yl)-7H-pyrrolo[2,3-d]pyrimidin-4-yl)-2-((tetrahydro-2H-pyran-4-yl)oxy)benzonitrile [Example 269]”, for which the pIC50 at IKKε was 7.33; on TBK1 it was 7.49.
As for “5-(6-(4-(4-(2,2-difluoroethyl)piperazin-1-yl)phenyl)-7H-pyrrolo[2,3-d]pyrimidin-4-yl)-2-((1-(2-hydroxyacetyl)piperidin-4-yl)oxy)benzonitrile [Example 264]”, the pIC50 on IKKε was 8.58.
